Experimental data taken from publication PMC8524670 (Pharmacology Research & Perspectives, 2021).

The chains behind the UniProt entries cited, without tags or fusion partners. Where a name states a change or a piece, a line headed by the entry shows the natural chain unless it says otherwise.
UniProt P08183, whole entry: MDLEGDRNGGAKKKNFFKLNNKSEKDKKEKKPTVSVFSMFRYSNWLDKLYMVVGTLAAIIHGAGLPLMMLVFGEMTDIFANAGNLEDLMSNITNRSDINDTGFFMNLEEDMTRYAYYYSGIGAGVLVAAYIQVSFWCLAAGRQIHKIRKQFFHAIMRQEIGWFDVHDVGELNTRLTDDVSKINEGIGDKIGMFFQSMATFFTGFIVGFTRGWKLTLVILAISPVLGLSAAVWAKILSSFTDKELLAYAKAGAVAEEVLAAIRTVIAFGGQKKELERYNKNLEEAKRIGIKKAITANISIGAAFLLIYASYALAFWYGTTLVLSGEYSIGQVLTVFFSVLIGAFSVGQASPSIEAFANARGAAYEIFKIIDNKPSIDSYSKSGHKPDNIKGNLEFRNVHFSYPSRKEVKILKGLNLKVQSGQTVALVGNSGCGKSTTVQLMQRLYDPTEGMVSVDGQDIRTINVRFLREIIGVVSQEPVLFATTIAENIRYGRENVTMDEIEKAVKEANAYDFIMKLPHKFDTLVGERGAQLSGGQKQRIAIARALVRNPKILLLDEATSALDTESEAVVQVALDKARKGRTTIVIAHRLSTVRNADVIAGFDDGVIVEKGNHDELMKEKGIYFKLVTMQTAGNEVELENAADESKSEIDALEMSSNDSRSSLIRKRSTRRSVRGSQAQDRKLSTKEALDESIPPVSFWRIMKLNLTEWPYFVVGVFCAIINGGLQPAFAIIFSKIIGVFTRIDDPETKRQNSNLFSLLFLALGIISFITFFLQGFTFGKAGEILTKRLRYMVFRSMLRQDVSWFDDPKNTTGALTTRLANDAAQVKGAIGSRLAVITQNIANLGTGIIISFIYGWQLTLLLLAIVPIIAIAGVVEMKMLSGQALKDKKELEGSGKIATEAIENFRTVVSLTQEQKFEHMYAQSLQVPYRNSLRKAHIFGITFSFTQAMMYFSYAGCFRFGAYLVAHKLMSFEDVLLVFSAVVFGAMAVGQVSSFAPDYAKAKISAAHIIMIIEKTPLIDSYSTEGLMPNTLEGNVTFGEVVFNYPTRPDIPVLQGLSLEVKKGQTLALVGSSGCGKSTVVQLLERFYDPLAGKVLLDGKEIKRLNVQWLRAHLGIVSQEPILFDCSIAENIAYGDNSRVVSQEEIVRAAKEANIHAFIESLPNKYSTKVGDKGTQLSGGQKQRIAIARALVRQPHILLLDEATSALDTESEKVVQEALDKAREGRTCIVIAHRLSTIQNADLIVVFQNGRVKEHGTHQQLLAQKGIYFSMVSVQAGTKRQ
UniProt Q9UNQ0: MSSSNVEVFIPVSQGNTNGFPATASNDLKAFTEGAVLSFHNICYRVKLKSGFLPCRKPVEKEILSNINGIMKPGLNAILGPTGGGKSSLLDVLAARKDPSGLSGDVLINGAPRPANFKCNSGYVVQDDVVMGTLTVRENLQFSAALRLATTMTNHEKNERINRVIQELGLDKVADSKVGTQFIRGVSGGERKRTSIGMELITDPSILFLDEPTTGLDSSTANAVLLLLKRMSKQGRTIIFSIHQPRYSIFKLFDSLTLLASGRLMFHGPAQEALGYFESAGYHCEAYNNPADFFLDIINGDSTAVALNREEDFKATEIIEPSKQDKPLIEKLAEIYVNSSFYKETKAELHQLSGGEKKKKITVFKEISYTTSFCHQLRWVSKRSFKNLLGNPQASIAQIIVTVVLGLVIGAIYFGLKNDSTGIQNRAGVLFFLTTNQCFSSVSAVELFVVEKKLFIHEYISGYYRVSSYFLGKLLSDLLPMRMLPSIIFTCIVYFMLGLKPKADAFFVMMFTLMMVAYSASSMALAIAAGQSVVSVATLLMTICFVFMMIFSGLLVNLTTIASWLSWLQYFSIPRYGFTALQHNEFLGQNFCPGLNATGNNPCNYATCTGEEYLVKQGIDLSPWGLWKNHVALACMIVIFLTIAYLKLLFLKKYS

How the values were obtained:
P-gp = P-gp (Homo sapiens, UniProt P08183); conditions: Caco‐2, digoxin 10 μM alone (vehicle control)
human BCRP = human BCRP (Homo sapiens, UniProt Q9UNQ0); conditions: novobiocin 500 µM

Compound	Papp A‐B of digoxin (P-gp)	Suppression of LFY uptake (human BCRP) [%]
C[C@H]1O[C@@H](O[C@H]2[C@@H](O)C[C@H](O[C@H]3[C@@H](O)C[C@H](O[C@H]4CC[C@@]5(C)[C@H](CC[C@@H]6[C@@H]5C[C@@H](O)[C@]5(C)[C@@H](C7=CC(=O)OC7)CC[C@]65O)C4)O[C@@H]3C)O[C@@H]2C)C[C@H](O)[C@@H]1O [Digoxin, reference compound]	0.700 ± 0.049 ×10^−6 cm s^−1	
CO[C@@H]1[C@@H](OC(N)=O)[C@@H](O)[C@H](Oc2ccc3c(O)c(NC(=O)c4ccc(O)c(CC=C(C)C)c4)c(=O)oc3c2C)OC1(C)C [Novobiocin]		98.9
